Results from patent US6713443B1, “Compounds which modify serotoninergic transmission, diagnostic and therapeutic applications” (Institut Pasteur, priority 1993, dated 2004).

Legend:
5-HT1B/D receptors [1] = assay: Relative activity at 1 nM, [125I]cyanopindolol binding; details: 1 nM peptide or amino acid, 0.3 nM [125I]cyanopindolol
Protocol: (§1) The binding experiments were performed as described above. […] Each value corresponds to the mean ± the standard deviation of three independent tests performed in quintuplicate.

5-HT1B/D receptors [2] = assay: Relative activity at 1 nM, [3H]5-HT binding; details: 1 nM peptide or amino acid, 30 nM [3H]5-HT
Protocol: as §1

RELATIVE POTENCY, Receptors 5-HT1B/D ([125I]-cyanopindolol) (5-HT1B/D receptors [1]) | Substance | RELATIVE POTENCY, Receptors 5-HT1B/D ([3H]5-HT) (5-HT1B/D receptors [2])
1.7 ± 1.6 percentage of the LSAL effect | LEU-ALA | 1 ± 2 percentage of the LSAL effect
– | SER-LEU (SL) | 4 ± 4 percentage of the LSAL effect
